Among the data in patent US20240360082A1, “SUBSTITUTED PYRIDONE COMPOUNDS USEFUL TO TREAT ORTH[…]” (priority 2021, published 2024) are IC50 values, retold here.

pIC50: −log10 of the molar value. Like-named read-outs stand apart in the source and are kept apart here.

In this test the test system is influenza virus (multiple flu strains). Description: organism not typed. The following applies: MDCK.
[1] abbreviates: read-out: NA Alaska H3N2 IC50, NA assay, Alaska H3N2 strain.
[2] abbreviates: read-out: NA CAL H1N1 IC50, NA assay, CAL H1N1 strain.
Where [3] appears, read: read-out: NA Alaska H3N2, NA assay, Alaska H3N2 strain.
Where [4] appears, read: read-out: NA CAL H1N1, NA assay, CAL H1N1 strain.

For `NC(=O)c1cc(-c2ccc(OCc3cncc(Cl)n3)cc2)c(C(F)(F)F)[nH]c1=O` [Example 216, 5-(4-((6-chloropyrazin-2-yl)methoxy)phenyl)-2-oxo-6-(trifluoromethyl)-1,2-dihydropyridine-3-carboxamide], the pIC50 under setting [1] was 7.00 to 8.00 and the pIC50 under setting [2] was 6.00 to 7.00. Turning to `NC(=O)c1cc(-c2ccc(OCc3cncc(C4CCOC4)c3)cc2)c(C(F)(F)F)[nH]c1=O` (centres unmarked) [Example 180, 2-oxo-5-(4-((5-(tetrahydrofuran-3-yl)pyridin-3-yl)methoxy)phenyl)-6-(trifluoromethyl)-1,2-dihydropyridine-3-carboxamide], the pIC50 reads like this: under setting [3], 6.00 to 7.00; under setting [4], 5.30 to 6.00. For `NC(=O)c1cc(-c2ccc(OCc3ncccc3F)cc2)c(C(F)(F)F)[nH]c1=O` [Example 114, 5-(4-((3-fluoropyridin-2-yl)methoxy)phenyl)-2-oxo-6-(trifluoromethyl)-1,2-dihydropyridine-3-carboxamide], the pIC50 runs as follows: under setting [3], 6.00 to 7.00; under setting [4], 5.30 to 6.00. Regarding `NC(=O)c1cc(-c2ccc(OCc3cc(F)ccc3F)cc2)c(C(F)(F)F)[nH]c1=O` [Example 116, 5-(4-((2,5-difluorobenzyl)oxy)phenyl)-2-oxo-6-(trifluoromethyl)-1,2-dihydropyridine-3-carboxamide], the pIC50 by setting is: under setting [3], 5.30 to 6.00; under setting [4], 6.00 to 7.00. On to `NC(=O)c1cc(-c2ccc(OCc3cncc(C4(O)COC4)c3)cc2)c(C(F)(F)F)[nH]c1=O` [Example 181, 5-(4-((5-(3-hydroxyoxetan-3-yl)pyridin-3-yl)methoxy)phenyl)-2-oxo-6-(trifluoromethyl)-1,2-dihydropyridine-3-carboxamide], for which the pIC50 was 5.00 to 5.30 under setting [3] and 4.60 to 5.00 under setting [4]. As for `CN1CCCC(COc2ccc(-c3cc(C(N)=O)c(=O)[nH]c3C(F)(F)F)cc2)C1` (centres unmarked) [Example 92, 5-(4-((1-methylpiperidin-3-yl)methoxy)phenyl)-2-oxo-6-(trifluoromethyl)-1,2-dihydropyridine-3-carboxamide], the pIC50 under setting [3] is 5.30 to 6.00 and the pIC50 under setting [4] was 5.00 to 5.30. Turning to `CCC1(COc2ccc(-c3cc(C(N)=O)c(=O)[nH]c3C(F)(F)F)cc2)COC1` [Example 228], the pIC50 is, setting by setting: under setting [1], 6.00 to 7.00; under setting [2], 5.30 to 6.00. As for `N#CCc1cccc(-c2cc(C(N)=O)c(=O)[nH]c2C(F)(F)F)c1` [Example 22, 5-(3-(cyanomethyl)phenyl)-2-oxo-6-(trifluoromethyl)-1,2-dihydropyridine-3-carboxamide], the pIC50 (read-out: NA—PR8 H1N1, NA assay, PR8 H1N1 strain) is 5.00 to 5.30. `Cc1cc(C)nc(COc2ccc(-c3cc(C(N)=O)c(=O)[nH]c3C(F)(F)F)cc2)c1` [Example 135]: the pIC50 under setting [3] was 6.00 to 7.00 and the pIC50 under setting [4] was 6.00 to 7.00. For `NC(=O)c1cc(-c2ccc(OCc3cnc(NC4CC4)nc3)cc2)c(C(F)(F)F)[nH]c1=O` [Example 163, 5-(4-((2-(cyclopropylamino)pyrimidin-5-yl)methoxy)phenyl)-2-oxo-6-(trifluoromethyl)-1,2-dihydropyridine-3-carboxamide], the pIC50 is, setting by setting: under setting [3], 6.00 to 7.00; under setting [4], 5.30 to 6.00. For `C[C@]12O[C@H](COc3ccc(-c4cc(C(N)=O)c(=O)[nH]c4C(F)(F)F)cc3)CO[C@H]1C2(F)F` [Example 394, 5-(4-(((1S,3S,6R)-7,7-difluoro-1-methyl-2,5-dioxabicyclo[4.1.0]heptan-3-yl)methoxy)phenyl)-2-oxo-6-(trifluoromethyl)-1,2-dihydropyridine-3-carboxamide], the pIC50 under setting [1] was 7.00 to 8.00 and the pIC50 under setting [2] is 7.00 to 8.00. Consider `NC(=O)c1cc(-c2ccc(OCc3cncnc3NC3CCCC3)cc2)c(C(F)(F)F)[nH]c1=O` [Example 174, 5-(4-((4-(cyclopentylamino)pyrimidin-5-yl)methoxy)phenyl)-2-oxo-6-(trifluoromethyl)-1,2-dihydropyridine-3-carboxamide], for which the pIC50 is 6.00 to 7.00 under setting [3] and 5.30 to 6.00 under setting [4].
